Reference: PubChem BioAssay (Tox21)
Where “and” joins values, the source holds several entries; their conditions need not be identical. Equal values may be shown once. Only a part is listed here, and it is no random draw. Records with an inconclusive call do not appear. Calls of active or inactive are those of the source. Calls come from the whole dose curve; as a rule, active = well fitted cell-killing curve with a large enough effect in the repeat runs; inconclusive = weak or mixed curves; inactive = flat fitted curve, though single readings scatter.

Test: qHTS RealTime-Glo MT Cell Viability Assay in HepG2 cells - 16 hour (AID 1224885); note: nearly all actives have a fitted effect of over 50% in size
Conditions: RealTime-Glo luminescence; series mostly up to 76.8 µM; activity change, negative = cytotoxic: at the top concentration
Text: U.S. Tox21 Program National Center for Advancing Translational Sciences [NCATS] NIH Chemical Genomics Center [NCGC] U.S. Environmental Protection Agency [EPA] National Institutes of Environmental Health Sciences [NIEHS] National Toxicology Program [NTP] U.S. Food and Drug Administration [FDA] Tox21 Assay Overview: Measure of cell viability is critical in the cell-base assay. Analysis of cell viability is necessary for the characterization of cell responses to cytotoxic drugs and environmental stress. A RealTime-Glo MT Cell Viability Assay to monitor cell viability in real time of continues cell culture during 40 hours of compound treatment was used to screen Tox21 10K library compounds in HepG2 cells. The RealTime-Glo MT Cell Viability Assay is a nonlytic, homogeneous, bioluminescent method to measure cell viability in real time using a simple, plate-based method. The assay involves adding NanoLuc luciferase and a cell-permeant prosubstrate to cells in culture. Viable cells reduce the proprietary prosubstrate to generate a substrate for NanoLuc luciferase. This substrate diffuses from cells into the surrounding culture medium, where it is rapidly used by the NanoLuc Enzyme to produce a luminescent signal. The signal correlates with the number of viable cells, making the assay well suited for cytotoxicity studies.
Tox21 Assay Protocol Summary: The mixture of HepG2 cell suspension and reagents were dispensed at 600cells/6 ul/well in 1536-well tissue culture treated black solid bottom plates using a Multidrop dispenser. After the assay plates were incubated at a 37 C/5% CO2 incubator for 5 hours, 23 nL of compounds dissolved in DMSO, positive and negative controls was transferred to the assay plate by a pintool work station. The plates were incubated at 37 C for 40 hours. The luminescence intensity were measured at 0h, 8h, 16h, 24h, 32h and 40h time points using ViewLux plate reader during compound treatment.
% is set by controls: 0 for no effect and ±100 for the full control effect; potency is the fitted concentration of half-maximal effect.

SMILES	activity change, negative = cytotoxic	Potency
ClP(Cl)c1ccccc1	inactive: -0.419%	
CCOP(=S)(CC)Sc1ccccc1 (stereo unspecified)	inactive: -1.92%	
CCNC(C)Cc1ccc2c(c1)OCO2 (stereo unspecified)	inactive: -4.58%	
CCC(C)(OOC(C)(C)C)OOC(C)(C)C	inactive: -5.59% [at 15.8 µM]	
Cc1cc([N+](=O)[O-])c(O)c([N+](=O)[O-])c1	inactive: -20%	
O=[p+]1oc2ccccc2c2ccccc21 (stereo unspecified)	inactive: 0.26%	
O=C(Cl)OCCOC(=O)Cl	inactive: -3.99%	
O=[N+]([O-])c1ccc(S(=O)(=O)O)c([N+](=O)[O-])c1	inactive: 2.4%	
CC(C)OP(=S)(OC(C)C)SCCNS(=O)(=O)c1ccccc1	inactive: -20.5%	
CCCCO[P+](=O)OCCCC		inactive
CCCCOP(OCCCC)OCCCC	inactive: -0.569%	
CN(N=O)C(=N)N[N+](=O)[O-]	inactive: -9.59%	
NC(=O)Nc1ccc([As](=O)(O)O)cc1		inactive
O=[P+](Oc1ccccc1)Oc1ccccc1	inactive: 1.4%	
O=C(Cl)Oc1ccccc1	inactive: 1.17%	
O=P(Cl)(Oc1ccccc1)Oc1ccccc1	inactive: 1.58%	
O=P(Cl)(Cl)c1ccccc1	inactive: 0.0534%	
O=C1C2CC=CCC2C(=O)N1SC(Cl)(Cl)C(Cl)Cl (stereo unspecified)		active: 44 µM and active: 6.92 µM
CN(C(=O)Cc1ccc(Cl)c(Cl)c1)[C@H]1CC[C@@]2(CCCO2)C[C@@H]1N1CCCC1	inactive: 0.0173% [at 35.3 µM]	
CCCCC(CC)CO[P+](=O)OCC(CC)CCCC (stereo unspecified)	inactive: 1.67%	
CCOC(=O)Cl	inactive: 0.257%	
CN(C(=O)Cc1cccc2occc12)[C@H]1CC[C@@]2(CCCO2)C[C@@H]1N1CCCC1	inactive: 2.93%	
CN(C(=O)Cc1ccccc1)[C@H]1CC[C@@]2(CCCO2)C[C@@H]1N1CCCC1	inactive: 0.99% [at 35.3 µM]	
COC(=O)Cl	inactive: -0.25%	
CC(C)CCCCCCCOP(OCCCCCCCC(C)C)Oc1ccccc1	inactive: 1.3%	
COP(=S)(Cl)OC	inactive: -7.01%	
